{
  "sequences": {"note": "The chains behind the UniProt entries cited, without tags or fusion partners.", "UniProt P28223, whole entry": "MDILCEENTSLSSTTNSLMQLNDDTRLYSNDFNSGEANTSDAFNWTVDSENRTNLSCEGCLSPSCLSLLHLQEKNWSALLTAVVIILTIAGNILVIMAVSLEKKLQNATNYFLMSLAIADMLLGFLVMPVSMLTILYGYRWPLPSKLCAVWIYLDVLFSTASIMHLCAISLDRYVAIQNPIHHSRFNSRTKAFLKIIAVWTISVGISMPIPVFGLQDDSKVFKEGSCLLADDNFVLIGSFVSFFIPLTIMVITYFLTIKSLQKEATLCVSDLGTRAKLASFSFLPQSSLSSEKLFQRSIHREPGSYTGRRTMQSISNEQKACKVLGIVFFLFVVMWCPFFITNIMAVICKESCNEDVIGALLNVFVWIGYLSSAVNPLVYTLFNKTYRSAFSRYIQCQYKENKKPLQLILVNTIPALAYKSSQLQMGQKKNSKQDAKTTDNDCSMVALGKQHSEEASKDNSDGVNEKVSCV"},
  "source": "patent US20240383913A1",
  "about": "“THIOPHENE RING COMPOUND, PREPARATION METHOD THEREFOR AND APPLICATION THEREOF” (CENTER FOR EXCELLENCE IN MOLECULAR CELL SCIENCE, CHINESE …, priority 2021, published 2024)",
  "key": {"5-HT2A receptor [1]": {"target": "T1, 5-HT2A receptor (Homo sapiens (Human), UniProt P28223)", "test": "5-HT2A receptor Gαq BRET (G protein trimer dissociation);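 note: cells transfected with 5-HT2A receptor, Gαq-Rluc, Gβ3 and Gγ9-GFP, BRET read with coelenterazine 400a (5 µM) across a compound dilution series in duplicate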", "type": "cell-based"}, "5-HT2A receptor [2]": {"target": "T1, 5-HT2A receptor", "test": "5-HT2A receptor β-arrestin2 BRET (recruitment);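 note: cells co-expressing Rluc-tagged 5-HT2A receptor, GRK2 and GFP2-tagged β-arrestin2, read by BRET with coelenterazine 400a (5 µM) across graded drug concentrations in duplicate, signal reflecting β-arrestin2 membrane recruitment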", "type": "cell-based"}, "5-HT2A receptor [3]": {"target": "T1, 5-HT2A receptor", "test": "Affinity for 5-HT2A receptors, radioligand competition with [3H]-ketanserin", "type": "binding", "settings": "293T membrane transiently expressing 5-HT2A"}},
  "data": [
    {"smiles": "c1cc2c3c(csc3c1)CC1CN(CC3CC3)CCN21", "note": "(centres unmarked) [Compound I-4, 8-(Cyclopropylmethyl)-6,6a,7,8,9,10-Hexahydropyrazino[1,2-a]Thieno [4,3,2-De]Quinoline]", "values": [
      {"measurement": "EC50", "setting": "5-HT2A receptor [1]", "result": 1380, "unit": "nM"},
      {"measurement": "Emax", "setting": "5-HT2A receptor [1]; read-out: Gαq BRET (Emax %)", "result": 50, "unit": "%"},
      {"measurement": "Emax", "setting": "5-HT2A receptor [2]; 5-HT2A receptor, β-arrestin2 pathway", "result": 34.1, "unit": "%"},
      {"measurement": "EC50", "setting": "5-HT2A receptor [2]; 5-HT2A receptor, β-arrestin2 pathway, read-out: β-arrestin2 BRET EC50", "result": 3940, "unit": "nM"},
      {"measurement": "Ki", "setting": "5-HT2A receptor [3]", "result": 4410, "unit": "nM"}
    ]},
    {"smiles": "O=C(CN1CCN2c3cccc4scc(c34)CC2C1)c1ccc(F)cc1", "note": "(centres unmarked) [Compound I-10, 1-(4-Fluorophenyl)-2-(6a,7,9,10-Tetrahydropyrazino[1,2-a]Thieno [4,3,2-De]Quinolin-8 (6H)-Yl) Ethan-1-One]", "values": [
      {"measurement": "EC50", "setting": "5-HT2A receptor [1]", "result": 14.2, "unit": "nM"},
      {"measurement": "EC50", "setting": "5-HT2A receptor [2]", "result": 394, "unit": "nM"},
      {"measurement": "Ki", "setting": "5-HT2A receptor [3]", "result": 1490, "unit": "nM"}
    ]}
  ]
}
